Laboratory results: patent US10308689B2, “Dengue virus (DV) polypeptide sequences, T cell epitopes and methods and uses thereof” (LA JOLLA INSTITUTE FOR ALLERGY AND IMMUNOLOGY, priority 2010, dated 2019)

Tested on: PBMC of healthy adult blood donors from Colombo, Sri Lanka
Assay: Ex vivo IFNγ ELISPOT, HLA-matched PBMC of Sri Lankan blood donors
Assay type: cell-based, human
[1] = ex vivo IFNγ ELISPOT, donors expressing HLA A*0201 (supertype A2)
[2] = ex vivo IFNγ ELISPOT, donors expressing HLA B*4001 (supertype B44)
[3] = ex vivo IFNγ ELISPOT, donors expressing HLA B*5801 (supertype B58)
[4] = ex vivo IFNγ ELISPOT, donors expressing HLA A*2402 (supertype A24)
[5] = ex vivo IFNγ ELISPOT, donors expressing B*1501
[6] = ex vivo IFNγ ELISPOT, donors expressing HLA B*3501 (supertype B7)
[7] = ex vivo IFNγ ELISPOT, donors expressing HLA B*0702 (supertype B7)
[8] = ex vivo IFNγ ELISPOT, donors expressing B*5801

CSCC[C@H](NC(=O)[C@H](C)NC(=O)[C@H](CCSC)NC(=O)[C@H](CC(C)C)NC(=O)[C@@H](N)[C@@H](C)O)C(=O)N[C@@H](CC(=O)O)C(=O)N[C@@H](CC(C)C)C(=O)NCC(=O)N[C@@H](CCC(=O)O)C(=O)N[C@@H](CC(C)C)C(=O)O
T cell response [SFC] [1]: 67 SFC

CC(C)C[C@H](NC(=O)[C@H](CCCNC(=N)N)NC(=O)[C@H](Cc1ccccc1)NC(=O)[C@H](CCC(=O)O)NC(=O)CN)C(=O)N[C@@H](CCCNC(=N)N)C(=O)NCC(=O)N[C@@H](CCC(=O)O)C(=O)N[C@@H](CCC(N)=O)C(=O)N[C@@H](CCCNC(=N)N)C(=O)O
T cell response [SFC] [2]: 273 SFC

CC(C)C[C@H](NC(=O)[C@@H](NC(=O)[C@@H]1CCCN1C(=O)CNC(=O)[C@@H](NC(=O)[C@H](C)N)[C@@H](C)O)C(C)C)C(=O)N[C@H](C(=O)N[C@@H](CC(C)C)C(=O)N[C@@H](Cc1c[nH]c2ccccc12)C(=O)O)[C@@H](C)O
T cell response [SFC] [3]: 185 SFC

CSCC[C@H](N)C(=O)N[C@H](C(=O)N[C@@H](CO)C(=O)N[C@@H](CCCNC(=N)N)C(=O)N[C@@H](CC(C)C)C(=O)N[C@@H](CC(C)C)C(=O)N[C@@H](CC(C)C)C(=O)N[C@@H](CC(N)=O)C(=O)N[C@@H](CCCNC(=N)N)C(=O)O)C(C)C
T cell response [SFC] (ex vivo IFNγ ELISPOT, donors expressing A*1101): 992 SFC

CC(C)C[C@H](N)C(=O)N[C@@H](Cc1c[nH]c2ccccc12)C(=O)N[C@@H](CCC(=O)O)C(=O)NCC(=O)N[C@@H](CO)C(=O)N1CCC[C@H]1C(=O)NCC(=O)N[C@@H](CCCCN)C(=O)N[C@@H](Cc1ccccc1)C(=O)O
T cell response [SFC] [4]: 57 SFC

CC[C@H](C)[C@H](NC(=O)[C@H](C)NC(=O)[C@H](CC(C)C)NC(=O)[C@H](CS)NC(=O)[C@H](CC(C)C)NC(=O)[C@@H](NC(=O)CNC(=O)[C@H](CCSC)NC(=O)[C@@H](NC(=O)[C@@H](N)Cc1ccccc1)[C@@H](C)O)C(C)C)C(=O)O
T cell response [SFC] [1]: 33 SFC

CC[C@H](C)[C@H](NC(=O)CNC(=O)[C@H](CCC(=O)O)NC(=O)CNC(=O)[C@H](CCC(=O)O)NC(=O)[C@H](CCSC)NC(=O)[C@H](CCC(N)=O)NC(=O)[C@@H](N)CCCNC(=N)N)C(=O)N[C@@H](Cc1ccccc1)C(=O)O
T cell response [SFC] [5]: 583 SFC

CC[C@H](C)[C@H](NC(=O)[C@H](CO)NC(=O)[C@@H](NC(=O)[C@H](CCSC)NC(=O)CNC(=O)[C@@H](NC(=O)[C@H](C)NC(=O)[C@@H](N)CCSC)C(C)C)C(C)C)C(=O)N[C@@H](CC(C)C)C(=O)O
T cell response [SFC] [6]: 172 SFC

CC(C)C[C@H](NC(=O)[C@H](C)NC(=O)[C@H](CCC(=O)O)NC(=O)[C@H](Cc1ccccc1)NC(=O)[C@H](CCC(=O)O)NC(=O)[C@H](CC(C)C)NC(=O)[C@H](Cc1ccccc1)NC(=O)[C@@H](N)CCCNC(=N)N)C(=O)NCC(=O)N[C@@H](Cc1ccccc1)C(=O)O
T cell response [SFC] (ex vivo IFNγ ELISPOT, donors expressing A*2402): 37 SFC

CC[C@H](C)[C@H](NC(=O)[C@@H](NC(=O)[C@H](CC(=O)O)NC(=O)[C@H](CCSC)NC(=O)[C@@H](NC(=O)[C@H](C)NC(=O)CNC(=O)[C@H](CCCCN)NC(=O)[C@@H]1CCCN1C(=O)[C@@H](N)[C@@H](C)O)C(C)C)[C@@H](C)CC)C(=O)O
T cell response [SFC] (ex vivo IFNγ ELISPOT, donors expressing B*0702): 422 SFC

C[C@@H](O)[C@H](N)C(=O)N1CCC[C@H]1C(=O)N1CCC[C@H]1C(=O)NCC(=O)N[C@@H](CO)C(=O)N[C@@H](CCCNC(=N)N)C(=O)N[C@@H](CC(=O)O)C(=O)N1CCC[C@H]1C(=O)N[C@@H](Cc1ccccc1)C(=O)O
T cell response [SFC] [6]: 210 SFC

CSCC[C@H](NC(=O)[C@H](CCSC)NC(=O)[C@H](CC(C)C)NC(=O)[C@@H](N)CS)C(=O)N[C@@H](CCSC)C(=O)N[C@@H](CC(C)C)C(=O)N1CCC[C@H]1C(=O)N[C@@H](C)C(=O)N[C@H](C(=O)N[C@@H](CC(C)C)C(=O)O)[C@@H](C)O
T cell response [SFC] [1]: 63 SFC

CC[C@H](C)[C@H](NC(=O)[C@H](CC(C)C)NC(=O)[C@H](CC(C)C)NC(=O)[C@@H](NC(=O)[C@H](CCSC)NC(=O)[C@H](CC(C)C)NC(=O)[C@@H](N)Cc1ccccc1)C(C)C)C(=O)N1CCC[C@H]1C(=O)N[C@@H](CCC(=O)O)C(=O)N1CCC[C@H]1C(=O)O
T cell response [SFC] [1]: 98 SFC

CSCC[C@H](NC(=O)[C@H](CCC(N)=O)NC(=O)[C@@H](N)CCCNC(=N)N)C(=O)N[C@@H](CCC(=O)O)C(=O)NCC(=O)N[C@@H](CCC(=O)O)C(=O)NCC(=O)N[C@H](C(=O)N[C@@H](CC(C)C)C(=O)O)C(C)C
T cell response [SFC] [5]: 382 SFC

CC(C)C[C@H](NC(=O)[C@H](CS)NC(=O)[C@H](CCCNC(=N)N)NC(=O)[C@H](CCCNC(=N)N)NC(=O)[C@@H]1CCCN1C(=O)[C@@H](N)CC(=O)O)C(=O)N[C@@H](CCCCN)C(=O)N1CCC[C@H]1C(=O)N[C@H](C(=O)O)C(C)C
T cell response [SFC] [7]: 115 SFC

CC(C)[C@H](NC(=O)[C@H](CCC(=O)O)NC(=O)[C@H](Cc1ccc(O)cc1)NC(=O)[C@H](CO)NC(=O)CNC(=O)[C@H](Cc1c[nH]cn1)NC(=O)[C@H](Cc1ccc(O)cc1)NC(=O)[C@H](C)NC(=O)[C@@H](N)Cc1c[nH]c2ccccc12)C(=O)O
T cell response [SFC] (ex vivo IFNγ ELISPOT, donors expressing B*5101): 97 SFC

CC[C@H](C)[C@H](NC(=O)[C@H](C)NC(=O)[C@H](Cc1ccc(O)cc1)NC(=O)[C@H](Cc1c[nH]cn1)NC(=O)[C@@H](NC(=O)[C@@H](NC(=O)[C@H](CC(C)C)NC(=O)[C@H](CC(C)C)NC(=O)[C@H](CC(C)C)NC(=O)[C@@H](N)C(C)C)C(C)C)[C@@H](C)O)C(=O)O
T cell response [SFC] [1]: 260 SFC

TPFGIIPAL
T cell response [SFC] (per epitope, ex vivo IFNγ SFC/10^6 PBMC): 183 SFC

CC[C@H](C)[C@H](NC(=O)[C@H](Cc1ccc(O)cc1)NC(=O)CNC(=O)[C@H](CCCNC(=N)N)NC(=O)[C@H](C)NC(=O)[C@H](C)NC(=O)[C@@H](NC(=O)[C@H](CO)NC(=O)[C@H](C)NC(=O)[C@@H]1CCCN1)[C@@H](C)CC)C(=O)O
T cell response [SFC] [3]: 140 SFC

CC[C@H](C)[C@H](NC(=O)[C@H](CC(=O)O)NC(=O)[C@H](CCCCN)NC(=O)[C@H](CCCNC(=N)N)NC(=O)[C@@H](NC(=O)[C@@H](N)CCCCN)C(C)C)C(=O)N[C@@H](CCC(N)=O)C(=O)N[C@@H](CCC(N)=O)C(=O)N[C@@H](Cc1c[nH]c2ccccc12)C(=O)O
T cell response [SFC] (ex vivo IFNγ ELISPOT, donors expressing B*5701): 115 SFC

CSCC[C@H](NC(=O)CNC(=O)[C@H](CCCCN)NC(=O)[C@H](CC(C)C)NC(=O)[C@H](C)NC(=O)[C@H](CCC(=O)O)NC(=O)[C@H](C)NC(=O)[C@H](CCSC)NC(=O)[C@H](CCC(=O)O)NC(=O)[C@@H](N)CO)C(=O)O
T cell response [SFC] [2]: 120 SFC

CC(C)C[C@H](NC(=O)CNC(=O)[C@H](C)NC(=O)CNC(=O)[C@H](C)NC(=O)[C@H](CC(C)C)NC(=O)[C@@H](N)Cc1ccc(O)cc1)C(=O)N[C@@H](C)C(=O)N[C@@H](Cc1ccccc1)C(=O)O
T cell response [SFC] [7]: 72 SFC

CC[C@H](C)[C@H](NC(=O)[C@H](CCC(=O)O)NC(=O)[C@@H](N)CCCNC(=N)N)C(=O)N1CCC[C@H]1C(=O)N[C@@H](CCC(=O)O)C(=O)N[C@@H](CCCNC(=N)N)C(=O)N[C@@H](CO)C(=O)N[C@@H](Cc1c[nH]c2ccccc12)C(=O)N[C@@H](CC(N)=O)C(=O)N[C@H](C(=O)O)[C@@H](C)O
T cell response [SFC] [2]: 93 SFC

CC(C)C[C@H](NC(=O)[C@H](CCC(N)=O)NC(=O)[C@@H](NC(=O)[C@H](Cc1ccc(O)cc1)NC(=O)[C@@H](N)C(C)C)[C@@H](C)O)C(=O)N[C@@H](CS)C(=O)N[C@@H](CC(=O)O)C(=O)N[C@@H](Cc1c[nH]cn1)C(=O)N[C@@H](CCCNC(=N)N)C(=O)O
T cell response [SFC] (ex vivo IFNγ ELISPOT, donors expressing HLA A*3301 (supertype A3)): 28 SFC

CC[C@H](C)[C@H](NC(=O)[C@@H](NC(=O)[C@H](CO)NC(=O)[C@H](Cc1ccc(O)cc1)NC(=O)[C@H](CCCCN)NC(=O)[C@H](CC(C)C)NC(=O)[C@H](CC(N)=O)NC(=O)[C@H](CCC(=O)O)NC(=O)[C@@H](N)Cc1ccc(O)cc1)C(C)C)C(=O)O
T cell response [SFC] (ex vivo IFNγ ELISPOT, donors expressing HLA B*4402 (supertype B44)): 37 SFC

CC[C@H](C)[C@H](NC(=O)[C@H](CO)NC(=O)[C@H](C)NC(=O)[C@@H]1CCCN1C(=O)[C@@H](N)CC(=O)O)C(=O)N[C@@H](C)C(=O)N[C@@H](C)C(=O)N[C@@H](CCCNC(=N)N)C(=O)NCC(=O)N[C@@H](Cc1ccc(O)cc1)C(=O)O
T cell response [SFC] [6]: 183 SFC

CSCC[C@H](NC(=O)[C@H](CCSC)NC(=O)[C@@H](N)CC(C)C)C(=O)N[C@@H](CCSC)C(=O)N[C@@H](CC(C)C)C(=O)N1CCC[C@H]1C(=O)N[C@@H](C)C(=O)N[C@H](C(=O)N[C@@H](CC(C)C)C(=O)O)[C@@H](C)O
T cell response [SFC] [1]: 78 SFC

CC(C)[C@H](NC(=O)[C@H](C)NC(=O)[C@H](C)NC(=O)[C@@H](N)CCCNC(=N)N)C(=O)N[C@@H](CCC(=O)O)C(=O)N[C@@H](CC(=O)O)C(=O)N[C@@H](CCC(=O)O)C(=O)N[C@@H](CCC(=O)O)C(=O)N[C@@H](Cc1ccccc1)C(=O)O
T cell response [SFC] [8]: 87 SFC

CC[C@H](C)[C@H](N)C(=O)N[C@@H](CCC(N)=O)C(=O)N1CCC[C@H]1C(=O)N[C@@H](Cc1ccccc1)C(=O)N[C@@H](CC(C)C)C(=O)N[C@@H](C)C(=O)N[C@@H](CC(C)C)C(=O)NCC(=O)N[C@@H](Cc1ccccc1)C(=O)O
T cell response [SFC] [4]: 27 SFC

CSCC[C@H](N)C(=O)N[C@H](C(=O)N[C@@H](CCC(N)=O)C(=O)N[C@@H](CCCCN)C(=O)N[C@@H](C)C(=O)N[C@@H](CCCNC(=N)N)C(=O)N[C@@H](CC(N)=O)C(=O)N[C@@H](C)C(=O)N[C@@H](CC(C)C)C(=O)O)[C@@H](C)O [MTQKARNAL]
T cell response [SFC] [7]: 263 SFC

CC[C@H](C)[C@H](NC(=O)[C@H](CCC(=O)O)NC(=O)[C@@H](N)CCSC)C(=O)N[C@H](C(=O)N[C@@H](C)C(=O)N[C@@H](CCC(=O)O)C(=O)N[C@@H](Cc1c[nH]c2ccccc12)C(=O)N[C@@H](CC(C)C)C(=O)N[C@@H](Cc1c[nH]c2ccccc12)C(=O)O)[C@@H](C)O
T cell response [SFC] [8]: 27 SFC
